The values that follow are results of earlier work, collected in patent US4296032A (priority 1979, dated 1981).

The conditions of the data set: isomerisation to a mixture with the 6-α-compound; cited from earlier work.

As to `CC1(C)S[C@@H]2[C@H](Br)C(=O)N2[C@H]1C(=O)O`, the stability entry was “tends to be unstable and is apparently readily isomerised to a mixture with the 6-α-compound”.
